Assay results taken from PubChem BioAssay AID588856 (National Center for Advancing Translational Sciences (NCATS), 2011).
Only a part is listed here, and it is no random draw. Calls of active or inactive are those of the source. Calls follow the shape of the dose curve; as a rule, active = well fitted cell-killing curve with a large enough effect; inactive = no such curve, though single readings can be large or run the other way.

Test: qHTS for Inhibitors of TGF-b: Cytotox Counterscreen
Conditions: HepG2 CAGA-GFP viability, ATP luminescence, 18 h; at 46.1 µM (top of the series)
Description: TGF-b is a main component in the TGF-b signaling pathway which plays diverse roles in cellular and development pathways. TGF-b is mediated by transcription factors called "Smads". Although the Smad-dependent pathway is the primary canonical TGF-b signaling mode, TGF-b1 can also activate alternative signaling pathways, including those involving MAPK (ERK, JNK and p38). This interaction may mediate or enhance Smad-dependent responses, or can exert Smad-independent effects. The complexity of this signaling cascade allows the TGF-b superfamily to perform unique, overlapping or redundant functions. […] We aim to identify Smad3-small molecule antagonists using a quantitative high throughput screening (qHTS) approach. […]
Suspensions of trypsinized HEPG2 CAGA-GFP cells were dispensed into white, tissue culture-treated, solid 1536-well plates at 5uL/well (1000 cells/well final concentration) in DMEM medium supplemented with 1% FBS. […] Two uL of CellTiter Glo (Promega), a luminescence-based viability reagent, was dispensed, followed by a 10 minute room temperature incubation. The plates were then measured on a PerkinElmer ViewLux plate reader for luminescence (clear filter) using a 5 second exposure. The %Activity was determined from the corrected luminescence values. […]
Concentration-response curves were fitted to the signals arising from the resulting luminescence. […]

Row | Structure (SMILES) | activity change, negative = cytotoxicity
1 | CCC(=O)N(c1ccccc1)C1(COC)CCN(CCn2nnn(CC)c2=O)CC1 | inactive: 1.08%
2 | CCC(=O)N(c1ccccc1)C1(COC)CCN(CCc2cccs2)CC1 | inactive: -12.5%
